From PubChem BioAssay AID602244 (Sanford-Burnham Center for Chemical Genomics, 2012) come the findings set out here.

Protein sequences, listed by entry. Tags and fused reporters are not part of them.
UniProt O00574, whole entry: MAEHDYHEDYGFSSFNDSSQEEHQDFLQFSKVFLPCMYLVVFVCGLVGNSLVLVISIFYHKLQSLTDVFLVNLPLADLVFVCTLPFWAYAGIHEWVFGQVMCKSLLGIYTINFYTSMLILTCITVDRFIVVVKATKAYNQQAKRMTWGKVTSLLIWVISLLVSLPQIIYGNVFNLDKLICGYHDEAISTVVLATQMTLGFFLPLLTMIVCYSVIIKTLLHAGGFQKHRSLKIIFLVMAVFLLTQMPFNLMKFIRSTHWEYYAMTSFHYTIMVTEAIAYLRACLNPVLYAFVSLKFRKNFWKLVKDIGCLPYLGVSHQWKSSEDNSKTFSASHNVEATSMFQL

For orientation: inhibition means the relative decrease from the control value, in per cent.

Each structure is given as a SMILES string. Only a part is listed here, and it is no random draw. Some results for these compounds are left out of this collection, so the calls shown say nothing about other tests. Active and inactive are the calls of the source. No stated cut-off is given here; in the data, active means inhibition above about 34% (passing the limit was not always enough); inactive means the rest.

The test concerns the target C-X-C chemokine receptor type 6 (Homo sapiens) (UniProt O00574). Briefly: CXCR6 receptor inhibitors, primary screen, cell-based, beta-arrestin, luminescence, CHO-K1 PathHunter, 1536-well (AID 602244).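 Further: antagonist mode with CXCL16 agonist at 10 nM final; 0% = 10 nM CXCL16 with DMSO and 100% = unstimulated wells without agonist.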 The conditions noted are these: at 20 µM, stronger effect = higher value.
As to `Cc1ccc(C(=O)NCC2(N3CCCCC3)CCCCC2)cc1`, the inhibition was inactive: 13.1%.

For the compound `CCN(CC)CC(C)C(C)OC(=O)C(O)(c1ccccc1)c1ccccc1` (stereo unspecified), the inhibition is inactive: 11.5%.

`COc1cc(SC)ccc1C(=O)NCC1(N(C)C)CCCCC1`: the inhibition was inactive: 1.4%.

For the compound `CC(C)N1C(=O)CC2(CCN(CCOC(=O)C(O)(c3ccccc3)c3ccccc3)CC2)C1=O`, the inhibition is inactive: -3.8%.

For the compound `CN1[C@@H]2CC[C@H]1CC(OC(=O)C(O)(c1ccccc1)c1ccccc1)C2` (stereo partly specified), the inhibition was inactive: 5.1%.

As to `O=C(NCC1(N2CCCCC2)CCCCC1)c1cc([N+](=O)[O-])ccc1Cl`, the inhibition is inactive: 3.5%.

In the case of `COc1ccc(C(=O)NCC2(N(C)C)CCCCC2)cc1`, the inhibition was inactive: 3.8%.

`CCN1CCCC(OC(=O)C2(O)c3ccccc3C=Cc3ccccc32)C1` (stereo unspecified): the inhibition was inactive: -3%.

For `Cc1cc(C(=O)NCC2(N3CCCCC3)CCCCC2)ccc1[N+](=O)[O-]`, the inhibition is inactive: 2.3%.

As for `O=C(NCC1(N2CCCCC2)CCCCC1)c1cccc(Br)c1`, the inhibition was inactive: -0.8%.

On to `C=CCN1CCN(CCOC(=O)C(O)(c2ccccc2)c2ccccc2)CC1`, for which the inhibition is inactive: -2.3%.

`O=C(NCC1(N2CCCCC2)CCCCC1)c1cc(F)c(F)cc1Cl`: the inhibition is inactive: -3%.

As for `Cc1ccccc1C(=O)NCC1(N2CCCCC2)CCCCC1`, the inhibition is inactive: -1.2%.

With `CN(C)c1ccc(C(=O)NCC2(N(C)C)CCCCC2)cc1`, the inhibition was inactive: -3.3%.

With `CN(C)C1CCCC1OC(=O)C(O)(c1ccccc1)c1ccccc1` (stereo unspecified), the inhibition is inactive: 3.9%.

`O=C(NCC1(N2CCCCC2)CCCCC1)c1cccc(Cl)c1`: the inhibition is inactive: 5.3%.

Regarding `COc1cccc(C(=O)NCC2(N3CCCCC3)CCCCC2)c1`, the inhibition was inactive: -2.9%.

For the compound `COc1ccc(Cl)cc1C(=O)NCC1(N(C)C)CCCCC1`, the inhibition is inactive: -1.5%.

Consider `COc1cc(C(=O)NCC2(N(C)C)CCCCC2)c([N+](=O)[O-])cc1OC`, for which the inhibition is inactive: -10.2%.

For `CN(C)C1(CNC(=O)c2ccc(Br)cc2)CCCCC1`, the inhibition is inactive: 6.7%.

With `CC(C)Oc1ccc(C(=O)NCC2(N(C)C)CCCCC2)cc1`, the inhibition is inactive: -0.6%.

With `O=C(OCCN1CCCC1)C(O)(c1ccccc1)c1ccccc1`, the inhibition is inactive: 0.5%.

For the compound `CN(C)c1cccc(C(=O)NCC2(N(C)C)CCCCC2)c1`, the inhibition is inactive: -0.7%.

For `C=C(C)C#CC(O)(C(=O)OC1CCN(C)CC1)c1ccccc1` (stereo unspecified), the inhibition was inactive: 0.6%.

For the compound `COc1ccc(Br)c(C(=O)NCC2(N3CCCCC3)CCCCC2)c1`, the inhibition is inactive: 15.1%.

Turning to `O=C(OC1CN2CCC1CC2)C(CO)(c1ccccc1)c1ccccc1` (stereo unspecified), the inhibition was inactive: 4.5%.
